Assay results published in US11414431B2, “Substituted pyrazolo[1,5-a]pyrimidines as TYK2 inhibitors” (Nimbus Lakshmi, Inc., priority 2018, dated 2022).

Protein sequences, listed by entry. Tags and fused reporters are not part of them. Residues count along the entry.
UniProt P29597, 556-888: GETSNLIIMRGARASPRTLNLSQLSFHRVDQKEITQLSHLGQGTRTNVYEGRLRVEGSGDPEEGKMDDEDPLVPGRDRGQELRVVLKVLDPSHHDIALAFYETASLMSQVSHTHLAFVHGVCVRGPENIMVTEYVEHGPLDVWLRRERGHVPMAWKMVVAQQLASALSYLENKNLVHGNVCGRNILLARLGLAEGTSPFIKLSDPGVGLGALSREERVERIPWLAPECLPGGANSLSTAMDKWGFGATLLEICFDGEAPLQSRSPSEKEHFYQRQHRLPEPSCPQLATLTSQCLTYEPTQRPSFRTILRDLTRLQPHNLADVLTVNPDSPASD

Target: human TYK2 (JH2domain-pseudokinase) (Homo sapiens (Human), UniProt P29597)
Experiment: TYK2 JH2 Domain Binding Assay (KINOMEscan)
Conditions: 11-point 3-fold dilution, top concentration 30,000 nM, duplicate; read-out: hTYK2_JH2_Binding (Kd; nM)

Kd: < 0.2 nM
Compound: CNc1cc(Nc2cccn(C3CC(F)(F)C3)c2=O)nc2c(C(=O)N[C@@H]3CCC[C@@H](O)C3)cnn12 [Compound I-62, 5-((1-(3,3-Difluorocyclobutyl)-2-oxo-1,2-dihydropyridin-3-yl)amino)-N-((1R,3R)-3-hydroxycyclohexyl)-7-(methylamino)pyrazolo[1,5-a]pyrimidine-3-carboxamide]
